Data taken from patent US20250387404A1, “FORMULATIONS AND METHODS FOR TREATING EPIDERMOLYSIS BULLOSA SIMPLEX AND RELATED CONDITIONS” (RUTGERS, THE STATE UNIVERSITY OF NEW JERSEY, priority 2022, published 2025).

Experiments:
K18 R90C mice = conditions: males, PP2 1 mg/kg ip 3 h after APAP, vs vehicle controls
A549 cells = conditions: 5 μM, 48 h
Protocol: A549 cells were cultured using Ham's F-12K medium (Thermo Fisher Scientific) supplemented with 10% fetal bovine serum (Sigma Aldrich) and 1% penicillin and 10,000 U/mL streptomycin (Life Technologies).

CC(C)(C)n1nc(-c2ccc(Cl)cc2)c2c(N)ncnc21 [PP2, 1-tert-butyl-3-(4-chlorophenyl)-1H-pyrazolo[3,4-d]pyrimidin-4-amine]
caspase 7 activation (K18 R90C mice): significant reduction
growth of A549 cells (A549 cells): appears to inhibit the growth
